Reference: publication PMC3409642 (Pharmaceutical research, 2012)

Molecular target: T1, UGT1A9 (Homo sapiens, UniProt O60656)
T1 sequence (O60656 26-530): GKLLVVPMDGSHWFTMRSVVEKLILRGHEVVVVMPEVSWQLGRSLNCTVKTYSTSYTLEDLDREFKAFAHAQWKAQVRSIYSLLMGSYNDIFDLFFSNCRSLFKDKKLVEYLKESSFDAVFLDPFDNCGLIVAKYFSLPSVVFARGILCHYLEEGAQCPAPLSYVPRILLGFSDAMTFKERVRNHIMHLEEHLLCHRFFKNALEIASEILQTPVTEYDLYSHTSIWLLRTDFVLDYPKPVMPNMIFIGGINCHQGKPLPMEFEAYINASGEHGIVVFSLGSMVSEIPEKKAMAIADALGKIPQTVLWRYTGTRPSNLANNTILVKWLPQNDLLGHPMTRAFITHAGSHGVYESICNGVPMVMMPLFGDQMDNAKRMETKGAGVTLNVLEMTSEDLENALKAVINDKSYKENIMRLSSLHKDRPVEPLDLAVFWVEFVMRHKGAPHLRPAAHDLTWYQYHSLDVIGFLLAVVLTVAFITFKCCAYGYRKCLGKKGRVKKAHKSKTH
Test: Kinetic profiling of glucuronidation by expressed human UGT1A9
Conditions: pH 7.4

SMILES | Vmax [pmol/mg/min]
Oc1ccc(F)cc1 [compound 115, 4-Fluorophenol] | 1680
COC(=O)c1ccc(O)cc1 [compound 132, Methyl-4-hydroxybenzoate] | 5454
